# Literature values, collected in publication PMC11954708 (Clinical Pharmacokinetics, 2025).
# Conditions: fed/fasted in vivo
compound,measurement,value
CCOC(=O)C1=C(C)NC(C)=C(C(=O)OC)C1c1cccc(Cl)c1Cl (stereo not shown) [Felodipine],AUC ratio Observed,1.53
